Laboratory results published in patent US20240360179A1, “STAPLED PEPTIDES AND METHODS THEREOF” (FOG PHARMACEUTICALS, INC., priority 2021, published 2024).

The chains behind the UniProt entries cited, without tags or fusion partners.
UniProt P35222, whole entry: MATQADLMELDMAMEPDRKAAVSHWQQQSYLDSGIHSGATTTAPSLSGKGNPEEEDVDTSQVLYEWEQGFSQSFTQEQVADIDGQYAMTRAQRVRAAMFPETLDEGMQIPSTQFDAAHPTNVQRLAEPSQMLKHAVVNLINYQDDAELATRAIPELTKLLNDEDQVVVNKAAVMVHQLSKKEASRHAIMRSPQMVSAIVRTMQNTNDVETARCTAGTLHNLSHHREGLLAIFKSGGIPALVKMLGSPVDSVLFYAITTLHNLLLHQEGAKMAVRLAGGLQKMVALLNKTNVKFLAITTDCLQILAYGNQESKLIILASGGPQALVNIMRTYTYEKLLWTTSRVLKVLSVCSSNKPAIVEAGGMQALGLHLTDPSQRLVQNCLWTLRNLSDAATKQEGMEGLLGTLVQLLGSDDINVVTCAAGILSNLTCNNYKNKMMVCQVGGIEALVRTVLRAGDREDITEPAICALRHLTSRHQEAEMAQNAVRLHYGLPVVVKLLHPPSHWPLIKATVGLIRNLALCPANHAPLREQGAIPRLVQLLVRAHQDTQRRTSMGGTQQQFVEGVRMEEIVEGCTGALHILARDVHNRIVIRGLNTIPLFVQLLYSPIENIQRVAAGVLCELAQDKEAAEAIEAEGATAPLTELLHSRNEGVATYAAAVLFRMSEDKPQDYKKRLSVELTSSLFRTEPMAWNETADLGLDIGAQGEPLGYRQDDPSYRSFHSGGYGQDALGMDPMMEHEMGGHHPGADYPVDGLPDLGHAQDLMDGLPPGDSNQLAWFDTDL

Each compound was assayed against T1, full-length B-Catenin (Uniprot ID P35222) (Homo sapiens, UniProt P35222) (assay: biochemical). Settings: beta-Catenin FP IC50 (nM), competition fluorescence polarization.
T1 construct: 10 nM full-length B-Catenin (Uniprot ID P35222)
Format: binding
CC(=O)N1CCC[C@]12CCCCCCC1(CCCCCCCCOC(=O)N3CC[C@@]4(C3)NC(=O)[C@H](CCCCNC(=O)CC[C@@H](C(=O)N[C@@H](C)C(N)=O)NC(=O)[C@H](Cc3csc5ccccc35)NC(=O)[C@H](Cc3ccsc3)NC4=O)NC(=O)[C@H](Cc3ccccc3)NC(=O)[C@H](C)NC(=O)C(C)(C)NC(=O)[C@H](Cc3cccc(C(=O)O)c3)NC(=O)[C@H](CC(=O)O)NC1=O)NC(=O)[C@H](CC(C)(C)C)NC(=O)[C@H]([C@H](C)O)NC2=O (relative stereo) [I-175, Ac-PL3-aThr-Npg-B5-Asp-3COOHF-Aib-Ala-Phe-Lys*3-PyrS2-3Thi-BztA-GlnR*3-Ala-NH2] was tested, and the IC50 was over 1000 nM. CNC(=O)C[C@@H]1NC(=O)[C@]2(CCCCCCC3(CCCCCCCCOC(=O)N4CC[C@@]5(C4)NC(=O)[C@H](CCCCNC(=O)CC[C@@H](C(=O)N[C@@H](C)C(N)=O)NC(=O)[C@H](Cc4csc6ccccc46)NC(=O)[C@H](Cc4ccsc4)NC5=O)NC(=O)[C@H](Cc4ccccc4)NC(=O)[C@H](C)NC(=O)C(C)(C)NC(=O)[C@H](Cc4cccc(C(=O)O)c4)NC(=O)[C@H](CC(=O)O)NC3=O)NC(=O)[C@H](CC(C)(C)C)NC1=O)CCCN2C(C)=O (relative stereo) [I-176, Ac-PL3-MeAsn-Npg-B5-Asp-3COOHF-Aib-Ala-Phe-Lys*3-PyrS2-3Thi-BztA-GlnR*3-Ala-NH2] gave an IC50 of over 1000 nM. CC(=O)N1CCC[C@]12CCCCCCC1(CCCCCCCCOC(=O)N3CC[C@@]4(C3)NC(=O)[C@H](CCCCNC(=O)CC[C@@H](C(=O)N[C@@H](C)C(N)=O)NC(=O)[C@H](Cc3csc5ccccc35)NC(=O)[C@H](Cc3ccsc3)NC4=O)NC(=O)[C@H](Cc3ccccc3)NC(=O)[C@H](C)NC(=O)C(C)(C)NC(=O)[C@H](Cc3cccc(C(=O)O)c3)NC(=O)[C@H](CO)NC1=O)NC(=O)[C@H](CC(C)(C)C)NC(=O)[C@H](CC(=O)O)NC2=O (relative stereo) [I-178, Ac-PL3-Asp-Npg-B5-Ser-3COOHF-Aib-Ala-Phe-Lys*3-PyrS2-3Thi-BztA-GlnR*3-Ala-NH2] was tested, and the IC50 was over 1000 nM. For CC(=O)N1CCC[C@]12CCCCCCC1(CCCCCCCCOC(=O)N3CC[C@@]4(C3)NC(=O)[C@H](CCCCNC(=O)CC[C@@H](C(=O)N[C@@H](C)C(N)=O)NC(=O)[C@H](Cc3csc5ccccc35)NC(=O)[C@H](Cc3ccsc3)NC4=O)NC(=O)[C@H](Cc3ccccc3)NC(=O)[C@H](C)NC(=O)C(C)(C)NC(=O)[C@H](Cc3cccc(C(=O)O)c3)NC(=O)[C@H]([C@@H](C)O)NC1=O)NC(=O)[C@H](CC(C)(C)C)NC(=O)[C@H](CC(=O)O)NC2=O (relative stereo) [I-179, Ac-PL3-Asp-Npg-B5-Thr-3COOHF-Aib-Ala-Phe-Lys*3-PyrS2-3Thi-BztA-GlnR*3-Ala-NH2], the IC50 was over 1000 nM. CC(=O)N1CCC[C@]12CCCCCCC1(CCCCCCCCOC(=O)N3CC[C@@]4(C3)NC(=O)[C@H](CCCCNC(=O)CC[C@@H](C(=O)N[C@@H](C)C(N)=O)NC(=O)[C@H](Cc3csc5ccccc35)NC(=O)[C@H](Cc3ccsc3)NC4=O)NC(=O)[C@H](Cc3ccccc3)NC(=O)[C@H](C)NC(=O)C(C)(C)NC(=O)[C@H](Cc3cccc(C(=O)O)c3)NC(=O)[C@H](CCO)NC1=O)NC(=O)[C@H](CC(C)(C)C)NC(=O)[C@H](CC(=O)O)NC2=O (relative stereo) [I-180, Ac-PL3-Asp-Npg-B5-Hse-3COOHF-Aib-Ala-Phe-Lys*3-PyrS2-3Thi-BztA-GlnR*3-Ala-NH2] was tested, and the IC50 was over 1000 nM. CC(=O)N1CCC[C@]12CCCCCCC1(CCCCCCCCOC(=O)N3CC[C@@]4(C3)NC(=O)[C@H](CCCCNC(=O)CC[C@@H](C(=O)N[C@@H](C)C(N)=O)NC(=O)[C@H](Cc3csc5ccccc35)NC(=O)[C@H](Cc3ccsc3)NC4=O)NC(=O)[C@H](Cc3ccccc3)NC(=O)[C@H](C)NC(=O)C(C)(C)NC(=O)[C@H](Cc3cccc(C(=O)O)c3)NC(=O)[C@H]([C@H](C)O)NC1=O)NC(=O)[C@H](CC(C)(C)C)NC(=O)[C@H](CC(=O)O)NC2=O (relative stereo) [I-181, Ac-PL3-Asp-Npg-B5-aThr-3COOHF-Aib-Ala-Phe-Lys*3-PyrS2-3Thi-BztA-GlnR*3-Ala-NH2] was tested, and the IC50 was over 1000 nM. For CNC(=O)C[C@@H]1NC(=O)C2(CCCCCCCCOC(=O)N3CC[C@@]4(C3)NC(=O)[C@H](CCCCNC(=O)CC[C@@H](C(=O)N[C@@H](C)C(N)=O)NC(=O)[C@H](Cc3csc5ccccc35)NC(=O)[C@H](Cc3ccsc3)NC4=O)NC(=O)[C@H](Cc3ccccc3)NC(=O)[C@H](C)NC(=O)C(C)(C)NC(=O)[C@H](Cc3cccc(C(=O)O)c3)NC1=O)CCCCCC[C@]1(CCCN1C(C)=O)C(=O)N[C@@H](CC(=O)O)C(=O)N[C@@H](CC(C)(C)C)C(=O)N2 (relative stereo) [I-182, Ac-PL3-Asp-Npg-B5-MeAsn-3COOHF-Aib-Ala-Phe-Lys*3-PyrS2-3Thi-BztA-GlnR*3-Ala-NH2], the IC50 was over 1000 nM. CC(=O)N1CCC[C@]12CC=CCCCC1(CCCC=CCCCOC(=O)N3CC[C@@]4(C3)NC(=O)[C@H](CCCCNC(=O)CCC[C@@H](C(=O)N[C@@H](C)C(N)=O)NC(=O)[C@H](Cc3csc5ccccc35)NC(=O)[C@H](Cc3ccccc3C(F)(F)F)NC4=O)NC(=O)[C@H](Cc3ccccc3)NC(=O)[C@H](C)NC(=O)[C@H](C)NC(=O)[C@H](Cc3cccc(C(=O)O)c3)NC(=O)[C@H](CC(=O)O)NC1=O)NC(=O)[C@H](CC(C)(C)C)NC(=O)[C@H](CC(=O)O)NC2=O (relative stereo) [I-184, Ac-PL3-Asp-Npg-B5-Asp-3COOHF-Ala-Ala-Phe-Lys*3-PyrS2-2F3MeF-BztA-hGlnR*3-Ala-NH2] gave an IC50 of under 50 nM. Work on CC(=O)N1CCC[C@]12CC=CCCCC1(CCCC=CCCCOC(=O)N3CC[C@@]4(C3)NC(=O)[C@H](CCCC(=O)NCCCC[C@@H](C(=O)N[C@@H](C)C(N)=O)NC(=O)[C@H](Cc3csc5ccccc35)NC(=O)[C@H](Cc3ccsc3)NC4=O)NC(=O)[C@H](Cc3ccccc3)NC(=O)[C@H](C)NC(=O)[C@H](C)NC(=O)[C@H](Cc3cccc(C(=O)O)c3)NC(=O)[C@H](CC(=O)O)NC1=O)NC(=O)[C@H](CC(C)(C)C)NC(=O)[C@H](CC(=O)O)NC2=O (relative stereo) [I-185, Ac-PL3-Asp-Npg-B5-Asp-3COOHF-Ala-Ala-Phe-hGlnR*3-PyrS2-3Thi-BztA-Lys*3-Ala-NH2] yielded an IC50 of under 50 nM. Work on CC(=O)N1CCC[C@]12CC=CCCCC1(CCCC=CCCCOC(=O)N3CC[C@@]4(C3)NC(=O)[C@H](CCCC(=O)NCCCC[C@@H](C(=O)N[C@@H](C)C(N)=O)NC(=O)[C@H](Cc3csc5ccccc35)NC(=O)[C@H](Cc3ccccc3C(F)(F)F)NC4=O)NC(=O)[C@H](Cc3ccccc3)NC(=O)[C@H](C)NC(=O)[C@H](C)NC(=O)[C@H](Cc3cccc(C(=O)O)c3)NC(=O)[C@H](CC(=O)O)NC1=O)NC(=O)[C@H](CC(C)(C)C)NC(=O)[C@H](CC(=O)O)NC2=O (relative stereo) [I-186, Ac-PL3-Asp-Npg-B5-Asp-3COOHF-Ala-Ala-Phe-hGlnR*3-PyrS2-2F3MeF-BztA-Lys*3-Ala-NH2] yielded an IC50 of under 50 nM. Compound CC(=O)N1CCC[C@]12CC=CCCCC1(CCCC=CCCCOC(=O)N3CC[C@@]4(C3)NC(=O)[C@H](CCCCN(C(C)C)C(=O)CC[C@@H](C(=O)N[C@@H](C)C(N)=O)NC(=O)[C@H](Cc3csc5ccccc35)NC(=O)[C@H](Cc3ccsc3)NC4=O)NC(=O)[C@H](Cc3ccccc3)NC(=O)[C@H](C)NC(=O)[C@H](C)NC(=O)[C@H](Cc3cccc(C(=O)O)c3)NC(=O)[C@H](CC(=O)O)NC1=O)NC(=O)[C@H](CC(C)(C)C)NC(=O)[C@H](CC(=O)O)NC2=O (relative stereo) [I-190, Ac-PL3-Asp-Npg-B5-Asp-3COOHF-Ala-Ala-Phe-iPrLys*3-PyrS2-3Thi-BztA-GlnR*3-Ala-NH2] has an IC50 of under 50 nM. CC(=O)N1CCC[C@]12CC=CCCCC1(CCCC=CCCCOC(=O)N3CC[C@@]4(C3)NC(=O)[C@H](CCC(=O)N(C(C)C)CCCC[C@@H](C(=O)N[C@@H](C)C(N)=O)NC(=O)[C@H](Cc3csc5ccccc35)NC(=O)[C@H](Cc3ccccc3C(F)(F)F)NC4=O)NC(=O)[C@H](Cc3ccccc3)NC(=O)[C@H](C)NC(=O)[C@H](C)NC(=O)[C@H](Cc3cccc(C(=O)O)c3)NC(=O)[C@H](CC(=O)O)NC1=O)NC(=O)[C@H](CC(C)(C)C)NC(=O)[C@H](CC(=O)O)NC2=O (relative stereo) [I-192, Ac-PL3-Asp-Npg-B5-Asp-3COOHF-Ala-Ala-Phe-GlnR*3-PyrS2-2F3MeF-BztA-iPrLys*3-Ala-NH2] showed an IC50 of under 50 nM. CC(=O)N1CCC[C@]12CC=CCCCC1(CCCC=CCCCOC(=O)N3CC[C@@]4(C3)NC(=O)[C@H](CCCCNC(=O)CC[C@@H](C(=O)N[C@@H](C)C(N)=O)NC(=O)[C@H](Cc3csc5ccccc35)NC(=O)[C@H](Cc3ccccc3C(F)(F)F)NC4=O)NC(=O)[C@H](Cc3ccccc3)NC(=O)[C@H](C)NC(=O)C(C)(C)NC(=O)[C@H](Cc3cc(C(=O)O)cc(C(F)(F)F)c3)NC(=O)[C@H](CC(=O)O)NC1=O)NC(=O)[C@H](CC(C)(C)C)NC(=O)[C@H](CC(=O)O)NC2=O (relative stereo) [I-206, Ac-PL3-Asp-Npg-B5-Asp-5F3Me3COOHF-Aib-Ala-Phe-Lys*3-PyrS2-2F3MeF-BztA-GlnR*3-Ala-NH2] gave an IC50 of under 50 nM. CC(=O)N1CCC[C@]12CC=CCCCC1(CCCC=CCCCOC(=O)N3CC[C@@]4(C3)NC(=O)[C@H](CCCCNC(=O)CC[C@@H](C(=O)N[C@@H](C)C(N)=O)NC(=O)[C@H](Cc3csc5ccccc35)NC(=O)[C@H](Cc3ccccc3C(F)(F)F)NC4=O)NC(=O)[C@H](Cc3ccccc3)NC(=O)[C@H](C)NC(=O)C(C)(C)NC(=O)[C@@H](CCC(=O)O)NC(=O)[C@H](CC(=O)O)NC1=O)NC(=O)[C@H](CC(C)(C)C)NC(=O)[C@H](CC(=O)O)NC2=O (relative stereo) [I-215, Ac-PL3-Asp-Npg-B5-Asp-dGlu-Aib-Ala-Phe-Lys*3-PyrS2-2F3MeF-BztA-GlnR*3-Ala-NH2] gave an IC50 of under 50 nM. CC(=O)N1CCC[C@]12CC=CCCCC1(CCCC=CCCCOC(=O)N3CC[C@@]4(C3)NC(=O)[C@H](CCCCNC(=O)CC[C@@H](C(=O)N[C@@H](C)C(N)=O)NC(=O)[C@H](Cc3csc5ccccc35)NC(=O)[C@H](Cc3ccccc3C(F)(F)F)NC4=O)NC(=O)[C@H](Cc3ccccc3)NC(=O)[C@H](C)NC(=O)C(C)(C)NC(=O)[C@H](CC(C)C)NC(=O)[C@H](CC(=O)O)NC1=O)NC(=O)[C@H](CC(C)(C)C)NC(=O)[C@H](CC(=O)O)NC2=O (relative stereo) [I-219, Ac-PL3-Asp-Npg-B5-Asp-Leu-Aib-Ala-Phe-Lys*3-PyrS2-2F3MeF-BztA-GlnR*3-Ala-NH2] was tested, and the IC50 was 200 to 750 nM.
